Results on 1 compound are retold here after ChEMBL document CHEMBL6103615, “Thymidylate Kinase-Targeted Antimicrobial Peptides via Phage Display: A Novel Strategy against Gram-Negative Bacteria” (J Med Chem, 2025).

The test system of test [1] is Escherichia coli. Briefly: Antibacterial activity against Escherichia coli 078 incubated for 12 to 18 hrs by microbroth dilution method. Format: functional. Particulars: time 12-18 hrs.
For test [2], the system named is Staphylococcus aureus. Briefly: Antibacterial activity against methicillin-resistant Staphylococcus aureus 43300 incubated for 12 to 18 hrs by microbroth dilution method. Format: functional. The settings on record: time 12-18 hrs. For orientation: In broth dilution the organism is exposed to a series of concentrations in liquid medium.
Test [3] concerns Staphylococcus aureus. As to the kind of experiment: Antibacterial activity against Staphylococcus aureus 25923 incubated for 12 to 18 hrs by microbroth dilution method. Format: functional. The settings on record: time 12-18 hrs.
The subject of test [4] is Pseudomonas aeruginosa. As to the kind of experiment: Antibacterial activity against Pseudomonas aeruginosa PAO1 incubated for 12 to 18 hrs by microbroth dilution method. Particulars: time 12-18 hrs. It is filed as functional.
In test [5] the test system is Staphylococcus epidermidis. As to the kind of experiment: Antibacterial activity against Staphylococcus epidermidis 12228 incubated for 12 to 18 hrs by microbroth dilution method. It is filed as functional. Particulars: time 12-18 hrs.
The subject of test [6] is Escherichia coli. Briefly: Antibacterial activity against Escherichia coli K88 incubated for 12 to 18 hrs by microbroth dilution method. Format: functional. The settings on record: time 12-18 hrs.
Test [7] concerns Escherichia coli. As to the kind of experiment: Antibacterial activity against Escherichia coli K99 incubated for 12 to 18 hrs by microbroth dilution method. It is filed as functional. Particulars: time 12-18 hrs.
The subject of the next test is Salmonella typhimurium. Briefly: Antibacterial activity against Salmonella typhimurium 7731 incubated for 12 to 18 hrs by microbroth dilution method. Format: functional, Salmonella enterica subsp. enterica serovar Typhimurium. The settings on record: Salmonella enterica, time 12-18 hrs.
For test [8], the system named is Pseudomonas aeruginosa. Briefly: Antibacterial activity against Pseudomonas aeruginosa 27853 incubated for 12 to 18 hrs by microbroth dilution method. Format: functional. The settings on record: time 12-18 hrs.
Test [9] deals with Staphylococcus aureus. As to the kind of experiment: Antibacterial activity against Staphylococcus aureus 29213 incubated for 12 to 18 hrs by microbroth dilution method. Format: functional. The settings on record: time 12-18 hrs.
Test [10] concerns Escherichia coli. Briefly: Antibacterial activity against Escherichia coli 1515 incubated for 12 to 18 hrs by microbroth dilution method. Format: functional. The settings on record: time 12-18 hrs.

In general, MIC refers to the lowest concentration found to suppress growth. A higher MIC goes with a less susceptible organism.

Each structure is given as a SMILES string. Values after ≈ are worked out from the molar mass of the structure shown.

As to `CC[C@H](C)[C@H](NC(=O)CN)C(=O)NCC(=O)N[C@@H](C)C(=O)N[C@H](C(=O)N[C@@H](CC(C)C)C(=O)N[C@@H](CCCCN)C(=O)N[C@H](C(=O)N[C@@H](CC(C)C)C(=O)N[C@H](C(=O)N[C@H](C(=O)NCC(=O)N[C@@H](CC(C)C)C(=O)N1CCC[C@H]1C(=O)N[C@@H](C)C(=O)N[C@@H](CC(C)C)C(=O)N[C@H](C(=O)N[C@@H](CO)C(=O)N[C@@H](Cc1c[nH]c2ccccc12)C(=O)N[C@H](C(=O)N[C@@H](CCCCN)C(=O)N[C@@H](CCCNC(=N)N)C(=O)N[C@@H](CCCCN)C(=O)N[C@@H](CCCNC(=N)N)C(=O)N[C@@H](CCC(N)=O)C(=O)N[C@@H](CCC(N)=O)C(N)=O)[C@@H](C)CC)[C@@H](C)CC)[C@@H](C)O)[C@@H](C)O)C(C)C)C(C)C` [MELITTIN], the MIC against Escherichia coli [1] turned out to be 4 µM (≈ 11.4 µg/mL); against Staphylococcus aureus [2], 2 µM (≈ 5.69 µg/mL); against Staphylococcus aureus [3], 4 µM (≈ 11.4 µg/mL); with Pseudomonas aeruginosa [4] it was 4 µM (≈ 11.4 µg/mL); in test [5], 2 µM (≈ 5.69 µg/mL); in the test with Escherichia coli [6] it was 2 µM (≈ 5.69 µg/mL). Also, the MIC in the test on Escherichia coli [7] amounted to 2 µM (≈ 5.69 µg/mL); with Salmonella typhimurium, 4 µM (≈ 11.4 µg/mL); against Pseudomonas aeruginosa [8], 16 µM (≈ 45.5 µg/mL); against Staphylococcus aureus [9] it was 4 µM (≈ 11.4 µg/mL); with Escherichia coli [10], 2 µM (≈ 5.69 µg/mL).
